Reference: publication PMC6562952, “Experimental and Computational Study to Reveal the Potential of Non-Polar Constituents from Hizikia fusiformis as Dual Protein Tyrosine Phosphatase 1B and α-Glucosidase Inhibitors” (Marine Drugs, 2019)
Like-named read-outs stand apart in the source and are kept apart here.

Legend:
[1] = target: T1, PTP1B (Homo sapiens, UniProt P18031); assay: Enzyme kinetic analysis towards PTP1B (Lineweaver-Burk plot and secondary plots); type: biochemical
T1 sequence (P18031 1-322): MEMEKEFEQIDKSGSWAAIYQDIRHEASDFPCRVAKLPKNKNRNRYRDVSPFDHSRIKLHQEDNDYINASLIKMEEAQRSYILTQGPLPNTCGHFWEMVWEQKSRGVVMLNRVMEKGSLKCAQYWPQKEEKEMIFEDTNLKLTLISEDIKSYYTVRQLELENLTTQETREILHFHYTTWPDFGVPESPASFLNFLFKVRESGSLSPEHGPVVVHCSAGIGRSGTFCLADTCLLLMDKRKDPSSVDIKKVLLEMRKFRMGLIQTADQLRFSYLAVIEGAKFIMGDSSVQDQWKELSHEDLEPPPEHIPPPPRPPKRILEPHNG
Method: The inhibition constant (Ki) and inhibition mode for the inhibition of PTP1B was calculated by the Lineweaver-Burk plot and its secondary plot of the slope and the y-intercept of compounds [49, 50]. […] Graphs were generated using SigmaPlot 12.0 (Systat Software Inc., San Jose, CA, USA).

[2] = target: T2, truncated form of human recombinant PTP1B (amino acid 1-322) (Homo sapiens, UniProt P18031); assay: In vitro PTP1B inhibitory activity assay (pNPP substrate); conditions: mean ± SD of triplicate experiments
T2 sequence (P18031 1-322): T1 sequence (P18031 1-322)

SMILES | Ki ([1]; secondary plot of slopes and y-intercept of Lineweaver-Burk plot, read-out: Enzyme Kinetics Ki (PTP1B inhibition constant)) [µM] | IC50 [2] [µM] | Ki ([1]; secondary plot of Km,app/Vmax,app (slope), read-out: Kic (binding constant of inhibitor with free enzyme)) [µM]
CC1(C)[C@@H](O)CC[C@]2(C)[C@H]3C(=O)C=C4[C@H]5C[C@@](C)(C(=O)O)CC[C@]5(C)CC[C@@]4(C)[C@]3(C)CC[C@@H]12 [Compound 22, 18α-glycyrrhetinic acid] | 3.17 | 10.4 ± 0.75 | 
CC1(C)C2CC[C@]3(C)[C@H](C(=O)C=C4[C@@H]5C[C@@](C)(C(=O)O)CC[C@]5(C)CC[C@]43C)[C@@]2(C)CC[C@@H]1O (stereo partly drawn) [Compound 23, 18β-glycyrrhetinic acid] |  | 26.1 ± 0.59 | 10.2
